scFv variants of Ab-14 (heavy chain) against a SARS-CoV-2 spike peptide

Data: MIT Lincoln Laboratory AlphaSeq set, Li et al. 2023, doi:10.1038/s41467-023-39022-2, as distributed in FLAb.

All variants were tested on one target, the spike HR2 peptide PDVDLGDISGINAS (SARS-CoV-2).

The variants keep the light chain, the linker and the frameworks of Ab-14 (scFv order VH, the linker GGGGSGGGGSGGGGS, VL).
VH: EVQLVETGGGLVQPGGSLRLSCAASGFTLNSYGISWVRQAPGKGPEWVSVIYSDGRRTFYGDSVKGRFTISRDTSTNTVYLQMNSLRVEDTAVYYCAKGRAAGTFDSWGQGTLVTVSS
VL: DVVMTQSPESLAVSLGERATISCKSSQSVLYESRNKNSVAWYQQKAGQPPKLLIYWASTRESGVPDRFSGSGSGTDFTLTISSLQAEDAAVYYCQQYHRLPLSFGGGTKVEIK

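The starting antibody came from a phage panning campaign against this peptide. Designed CDR sequences, proposed from the first random library and measured here. Group labels follow the data file (Ctrl: baseline library sampled from a position-specific scoring matrix, with some repeated check sequences; GPLM: also part of the Gaussian process libraries; Gen: genetic algorithm; a sequence that several methods proposed may carry one label only). The assay is AlphaSeq: two haploid yeast populations carry antibody and antigen on their surface. After mating in shaken culture at 30 °C for 16 h, diploids were selected and their barcode pairs sequenced. Each replicate has its own calibration line, from reference interactions of the BCL2 family. Each pool was mated in six replicate cultures.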

Each variant is given by its three heavy chain CDRs, as the data file delimits them; those of the parent are GFTLNSYGIS, VIYSDGRRTFYGDSVK, GRAAGTFDS. Numbers give log10(Kd / nM), so 0 is 1 nM and 3 is 1 µM. Smaller is tighter. "n.d." means that the variant was in the library but no mating with the target was seen in that replicate; the authors take this as a sign of poor binding, and no number exists. The authors' rule: three or more of the six replicates give a measured affinity, fewer mean a poor binder.

CDR-H1	CDR-H2	CDR-H3	group	log10 Kd (nM) by replicate	control signals
GFTLNSYGIS	VIYRDGRRTFYGDSVK	GRPAGTFSS	Ctrl	n.d. / n.d. / n.d. / n.d. / n.d. / n.d.	1 of 18 (1.33)
GFTLNSYGIS	VIYSDGERTFYGRSVK	NRAAGTFDQ	Ctrl	n.d. / n.d. / n.d. / n.d. / n.d. / n.d.	0 of 18
GFTLNSYGIS	VIYSDGQRTFYGDSVK	GRAAGTFDS	Ctrl	n.d. / n.d. / n.d. / n.d. / n.d. / n.d.	0 of 18
GFALNSYGIS	VIYSDGRRTFYGDSVK	GREADTFDS	Ctrl	n.d. / n.d. / n.d. / n.d. / 3.35 / n.d.	0 of 18
GFTINSYGIS	VIYSDGRRTFYGDSVK	GQAAGTFDT	Ctrl	n.d. / 1.38 / 1.52 / 1.99 / 0.55 / 2.05	0 of 18
GFTLNSYGIS	VIYSDGIRTFYNDSVK	GQAEGTFDS	Ctrl	n.d. / n.d. / n.d. / n.d. / 3.08 / n.d.	1 of 18 (3.25)
GFTLNSYGIS	VIYSDGRRTFYGDSVK	GRAAGTWDE	Ctrl	n.d. / n.d. / n.d. / 2.66 / n.d. / n.d.	0 of 18
GFTLSDYGIS	VIYSDGRRTYYEDSVK	GRPAGTFDS	Ctrl	n.d. / 2.08 / 1.33 / n.d. / 2.24 / n.d.	0 of 18
GFSPNSYGIS	VIYSDGRRTFYIDSVK	GRAMGTFDS	Ctrl	n.d. / n.d. / n.d. / n.d. / n.d. / n.d.	0 of 18
GFELNSYGIS	VIYSDGRRTFYTDSVK	GRAAGTFDS	Ctrl	0.91 / 1.25 / 1.00 / 1.09 / n.d. / n.d.	0 of 18
GFTLLSYGIS	VIYSDGSRTFYGDKVK	GRAAGTFDS	Ctrl	2.47 / n.d. / n.d. / n.d. / n.d. / n.d.	0 of 18
GFGLNSYGIS	VIYSDGRRTFYGDSVK	GRAAGTFDV	Ctrl	n.d. / 0.92 / n.d. / 2.38 / 0.63 / 2.33	0 of 18
GFTLNSYGIS	VIYSDGRRTFYGDSVK	GRAAGTFDT	Ctrl	1.27 / 1.89 / 1.61 / 1.92 / 1.52 / 1.75	0 of 18
GFTLNSYGIS	VIYSDGRRTFYGDNVK	GRVAGTFDS	Ctrl	0.50 / 0.06 / 0.42 / 0.30 / 0.28 / 0.75	2 of 18 (1.68)
GFNLNSYGIS	VIYSDGRRTFYGDSVK	GDNAGTFDS	Ctrl	3.11 / 2.98 / 0.79 / 0.86 / 0.39 / 1.40	1 of 18 (1.99)
GFTLNSYGIS	VIYSDGRRTFYGDSVK	GRVAGLFNS	Ctrl	0.67 / n.d. / 0.26 / 0.25 / 0.58 / n.d.	0 of 18
GFTLNSYGIS	VIYSDGERTFYGDKVK	GEAAGTFDS	Ctrl	1.73 / n.d. / n.d. / n.d. / n.d. / n.d.	1 of 18 (1.25)
GFGLNSYGIS	VIYSDGLRTFYSDFVK	GRAAGFFDS	Ctrl	n.d. / n.d. / n.d. / n.d. / n.d. / n.d.	0 of 18
GFTLNSYGIS	VIYSDGRRTFYGDSVK	GQAAGTFDM	Ctrl	n.d. / n.d. / 1.24 / 2.29 / 1.36 / n.d.	1 of 18 (1.72)
GFTLESYGIS	VIYSDGRRTFYGQSVK	GRACGTFDS	Ctrl	n.d. / n.d. / n.d. / n.d. / n.d. / n.d.	0 of 18
GFTLNSYGIS	VIYSDGRRTFYGDSVK	GRLAGTFDS	Ctrl	1.43 / n.d. / n.d. / n.d. / n.d. / 2.89	0 of 18
GFTLENYGIS	VIYSDGRRTFYGDSVK	GTASGTFDS	Ctrl	n.d. / 2.38 / n.d. / n.d. / n.d. / n.d.	0 of 18
GFTLDDYGIS	VIYSDGRRTFYGDSVK	GFAAGTFDS	Ctrl	n.d. / -0.43 / -0.71 / -0.49 / -0.55 / 0.23	1 of 18 (0.79)
KFTLNSYGIS	VIYSDGRRTAYEDSVK	GSAAGTFDS	Ctrl	n.d. / n.d. / 2.37 / 1.31 / n.d. / 2.15	0 of 18
GFTLNSYGIS	VIYSDGRRTFYGDSVK	GYAAGFFDS	Ctrl	n.d. / n.d. / 3.18 / n.d. / 2.86 / 2.47	0 of 18
LNTLNQYGIS	VIYSDGRRTFYGDSVK	GRAAGTFHS	Ctrl	n.d. / n.d. / n.d. / n.d. / n.d. / n.d.	0 of 18
GFTLNSYGIS	VIYSDGRRTFYGDSVA	GRATGTFDS	Ctrl	n.d. / n.d. / n.d. / n.d. / n.d. / n.d.	0 of 18
GFTLNSYGIS	VIYSDGLRTFYGDSVK	GRAAGTFEV	Ctrl	n.d. / n.d. / n.d. / n.d. / n.d. / n.d.	0 of 18
GFTLNSYGIS	VIYSDGRRTFYGDSVK	GRHAGTFDS	Ctrl	n.d. / n.d. / 1.50 / n.d. / n.d. / n.d.	0 of 18
GFTLASYGIS	VIYSDGRRTAYGDQVK	GKAAGTFDS	Ctrl	1.50 / 2.48 / 0.78 / 2.11 / 1.55 / n.d.	0 of 18
GFTLNSYGIS	VIYSDGERTFYGDSVK	GRAAGTFDS	Ctrl	1.55 / 1.51 / 2.33 / 0.91 / 0.82 / 0.89	0 of 18
GFGLNSYGIS	VIYSDGQRTFYGDSVK	GREAGTFDS	Ctrl	0.95 / 1.42 / 0.83 / 0.70 / 0.55 / 0.64	0 of 18
GFTLNSYGIS	VIYSDGRRTFYIDQVK	GRAAGTFDK	Ctrl	n.d. / n.d. / n.d. / n.d. / n.d. / n.d.	0 of 18
GFTLNSYGIS	VIYSDGRRTFYDDSVK	GEQAGTFDH	Ctrl	0.93 / 0.68 / 0.65 / 0.91 / 0.86 / 1.28	2 of 18 (3.06)
HFGLNSYGIS	VIYSDGRRTFYSDSVK	GREAGHFDS	Ctrl	n.d. / n.d. / n.d. / n.d. / n.d. / n.d.	0 of 18
GFDLNDYGIS	VIYADGRRTFYTDSVK	GRAAGAFDS	Ctrl	0.95 / 0.92 / 0.95 / 1.03 / 0.82 / 1.39	1 of 18 (2.33)
GFTLNSYGIS	VIYSDGRRTFYGDSVK	GYPAGTFIS	Ctrl	n.d. / n.d. / n.d. / n.d. / n.d. / n.d.	0 of 18
GFTLNMYGIS	VIYSDGRRTFYQDSVK	GYAAGTFDS	Ctrl	n.d. / n.d. / n.d. / n.d. / 2.72 / n.d.	0 of 18
GFTLNSQGIS	VIYSDGRRTWYGDSVK	GRAAGLFDS	Ctrl	1.54 / 1.19 / 0.77 / 1.27 / 0.75 / 1.32	0 of 18
GFDLNSYGIS	VIYSDGRRTFYSDSVK	GRAAGTFDS	Ctrl+GPLM_Gen	0.27 / 0.00 / -0.05 / -0.41 / 0.26 / -0.11; 0.42 / 0.03 / 0.10 / -0.08 / 0.12 / 0.00	0 of 36
GFTLNSYGIS	VSYSDGRRTFYGDSVK	GRAAGTFDS	Ctrl	n.d. / n.d. / n.d. / n.d. / 2.11 / n.d.	0 of 18
GFTLNDYGIS	VIYSDGRRTFYGNSVK	GDAAGTFDG	Ctrl	1.87 / 2.73 / 2.52 / 1.26 / n.d. / 1.64	0 of 18
GFTLQSYGIS	VIYSDGRRTFYHDSVK	GEAAGKFFS	Ctrl	n.d. / n.d. / n.d. / n.d. / n.d. / n.d.	0 of 18
GFTLNDYGIS	VIYSDGYRTFYGDQVK	GRAAGTFDS	Ctrl	n.d. / n.d. / n.d. / 1.26 / n.d. / 1.77	0 of 18
GLTLNSYGIS	VIYSDGRRTFYYDSVK	GRAAFTFDL	Ctrl	n.d. / n.d. / n.d. / n.d. / n.d. / n.d.	0 of 18
GFTLNSYGIS	VIYSDGRRTFYADAVK	GRAAGTFDS	Ctrl	n.d. / 0.96 / 1.05 / 0.39 / n.d. / 1.30	0 of 18
GFNLNSYGIS	VIYSDGMRTFYGNSVK	GRAAGDTDS	Ctrl	n.d. / n.d. / n.d. / n.d. / n.d. / n.d.	0 of 18

3 of these entries, quoted again:

CDR-H1,CDR-H2,CDR-H3,group,log10 Kd (nM) by replicate,control signals
GFTLNSYGIS,VIYSDGRRTFYDDSVK,GEQAGTFDH,Ctrl,0.93 / 0.68 / 0.65 / 0.91 / 0.86 / 1.28,2 of 18 (3.06)
GFTLNSQGIS,VIYSDGRRTWYGDSVK,GRAAGLFDS,Ctrl,1.54 / 1.19 / 0.77 / 1.27 / 0.75 / 1.32,0 of 18
HFGLNSYGIS,VIYSDGRRTFYSDSVK,GREAGHFDS,Ctrl,n.d. / n.d. / n.d. / n.d. / n.d. / n.d.,0 of 18

Nonspecific signal, from three strains lacking the peptide, appeared in 1% of pairings of all heavy chain designs, centred on 2.08 (5% of these signals below 0.84); values are not corrected for it. For each scFv, signals with the empty controls are counted beside the result, with their mean in brackets. Some sequences occur more than once in the pool; their replicates are listed entry by entry, parted by semicolons. Values of this round are not directly comparable with the first-round values of the same sequences. The parent sequence was in this pool as ten entries: three were never detected, three once, and four in most replicates, with averages from 0.34 to 2.37.